Assay results: patent publication US20210077420A1, “Methods of Treatment of Gout” (priority 2017, published 2021)

Test: Solubility enhancement of MSU crystals in phosphate buffered saline (Examples 2A, 2B)
Type: physicochemical
Settings: Table 2
Method: A phosphate buffered saline diluent was prepared by dissolving 8.2 g of NaCl and 0.68 g of KH2PO4 in 500 mL of deionised water in a 1 L flask. An NaOH solution was prepared by dissolving 0.399 g of NaOH in 100 mL of deionised water. 39.1 mL of the 0.1 M NaOH solution was then added to the 1 L flask and the volume was made up to 1 L with deionised water. The pH was adjusted to 7.4.
Approximately 5 mg of monosodium urate crystals was then suspended in 4.75 mL of the phosphate buffered saline diluent. […] This was then stirred for about 16 hours.

[1] = 5% by volume solubility enhancer in PBS pH 7.4, control = 100%

Compound: CCCCC/C=C\C/C=C\CCCCCCCC(=O)O [Linoleic acid]
- % vs control [1]: 115%

Compound: CCOCCOCCO [Transcutol, 2-(2-ethoxyethoxy)ethanol]
- % vs control (1% by volume solubility enhancer in PBS): 128%
- % vs control (2.5% by volume solubility enhancer in PBS): 131%
- % vs control [1]: 144%
- % vs control (10% by volume solubility enhancer in PBS): 153%
